Our source for the specific binding as percent of total binding values is paper PMC5996351.

Sequences of proteins named here, by UniProt entry; tags and fusion partners are left off.
UniProt P37288, whole entry: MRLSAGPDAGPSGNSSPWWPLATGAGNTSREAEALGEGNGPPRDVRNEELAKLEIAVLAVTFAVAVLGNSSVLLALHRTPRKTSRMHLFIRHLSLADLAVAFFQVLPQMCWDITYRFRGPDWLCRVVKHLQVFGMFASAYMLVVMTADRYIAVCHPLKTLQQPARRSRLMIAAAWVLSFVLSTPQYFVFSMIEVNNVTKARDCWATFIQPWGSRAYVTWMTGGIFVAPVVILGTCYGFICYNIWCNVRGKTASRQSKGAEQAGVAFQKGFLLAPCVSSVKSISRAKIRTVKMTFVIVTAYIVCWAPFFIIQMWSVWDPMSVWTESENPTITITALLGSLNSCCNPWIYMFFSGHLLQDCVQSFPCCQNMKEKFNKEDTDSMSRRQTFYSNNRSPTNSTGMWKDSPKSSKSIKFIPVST

The target of the assay is human V1a vasopressin receptor encapsulated in a SMILP (human) (UniProt P37288). Description: radioligand binding; [3H]AVP as tracer on SMI-solubilized membranes containing V1aR-SMILP from HEK 293T cells; non-specific binding defined by a saturating concentration (1 uM) of unlabelled AVP; three separate experiments in triplicate.

In the case of [3H]vasopressin (peptide), the specific binding as percent of total binding was determined as 42%.
